Common to all, as to assay: non-reducing SDS-PAGE and western blot; conditioned media of transfected HeLa cells; no beta-mercaptoethanol; anti-HA, LI-COR
In assay [1] the target is human A55T HA-tagged retinol-binding protein (^HARBP) (human) (UniProt P02753).
Assay [2] has as its target human E13del HA-tagged retinol-binding protein (^HARBP) (human) (UniProt P02753).
In assay [3] the target is human G75D HA-tagged retinol-binding protein (^HARBP) (human) (UniProt P02753).
The target in assay [4] is human I41N HA-tagged retinol-binding protein (^HARBP) (human) (UniProt P02753).
Assay [5] concerns the target human K12del HA-tagged retinol-binding protein (^HARBP) (human) (UniProt P02753).
The target of assay [6] is human wild-type HA-tagged retinol-binding protein (^HARBP) (human) (UniProt P02753).

In assay [1], “human A55T HA-tagged retinol-binding protein (^HARBP) (from UniProt P02753 19-201) (natural protein)” registered a percent dimers of under 1%.
“human E13del HA-tagged retinol-binding protein (^HARBP) (from UniProt P02753 19-201) (natural protein)” gave a percent dimers in assay [2] of over 85%.
“human G75D HA-tagged retinol-binding protein (^HARBP) (from UniProt P02753 19-201) (natural protein)” came in with a percent dimers in assay [3] of over 85%.
The substance “human I41N HA-tagged retinol-binding protein (^HARBP) (from UniProt P02753 19-201) (natural protein)” displayed a percent dimers in assay [4] of over 85%.
In assay [5], “human K12del HA-tagged retinol-binding protein (^HARBP) (from UniProt P02753 19-201) (natural protein)” showed a percent dimers of over 85%.
“human wild-type HA-tagged retinol-binding protein (^HARBP) (from UniProt P02753 19-201) (natural protein)” showed a percent dimers in assay [6] of under 1%.

(Values after publication PMC6546432.)
